This experiment deals with BDL rats. As to the kind of experiment: Brain TLR4 expression, brain water and survival in BDL rats with or without LPS. The class given is in vivo. Particulars: BDL rats administered LPS; FIG. 25. From the text:
These experiments utilised an established animal model of cirrhosis, the bile duct ligated (BDL) rat. BDL rats may be generated by methods known in the art. For example, male Sprague-Dawley rats (200-250 g) may be used for this procedure. Following anaesthetisation, a mid-line laparotamy may be performed, the bile duct exposed, triply ligated with 4.0 silk suture, and severed between the second and third ligature. The wound is then closed in layers with absorbable suture, and the animal allowed to recover in a quiet room before being returned to the animal storage facility. 6 groups of Sprague-Dawley rats were studied: n=6 in each group. […] Experiments were carried out using Sham treated and BDL rats as described above.

As for `CCn1cc(C(=O)O)c(=O)c2cc(F)c(N3CCNCC3)cc21` [Norfloxacin], the survival result is recorded as “improvement in survival”.

Values taken from US9889176B2, “Treating renal and liver dysfunction with TLR4 antagonists” (YAQRIT LIMITED, priority 2010, dated 2018).
